Measured values from US20260091086A1, “POLYPEPTIDE COMBINATIONS AND USES THEREOF” (MEDIMMUNE LIMITED, priority 2024, published 2026).

Test system: hAMYR as compared to hCTR
Experiment: Selectivity hAMYR over hCTR by cAMP release
Assay type: cell-based, human

For `CC[C@H](C)[C@H](NC(=O)[C@@H]1CCCN1C(=O)CNC(=O)[C@H](Cc1ccccc1)NC(=O)[C@H](CC(N)=O)NC(=O)[C@H](CC(N)=O)NC(=O)[C@H](CO)NC(=O)[C@H](CO)NC(=O)[C@H](Cc1c[nH]cn1)NC(=O)[C@@H](NC(=O)[C@H](CC(C)C)NC(=O)[C@H](Cc1ccccc1)NC(=O)[C@H](CC(N)=O)NC(=O)[C@H](C)NC(=O)[C@H](CC(C)C)NC(=O)[C@H](CCCNC(=N)N)NC(=O)[C@H](CCC(N)=O)NC(=O)[C@@H](NC(=O)[C@H](C)NC(=O)[C@@H]1CSSC[C@H](NC(=O)[C@@H](N)CCCCN)C(=O)N[C@@H](CC(N)=O)C(=O)N[C@@H]([C@@H](C)O)C(=O)N[C@@H](C)C(=O)N[C@@H]([C@@H](C)O)C(=O)N1)[C@@H](C)O)C(C)C)C(=O)N[C@@H](CC(C)C)C(=O)N1CCC[C@H]1C(=O)N1CCC[C@H]1C(=O)N[C@H](C(=O)N[C@@H](CC(N)=O)C(=O)N[C@H](C(=O)NCC(=O)N[C@@H](CO)C(=O)N[C@@H](CC(N)=O)C(=O)N[C@H](C(=O)N[C@@H](Cc1ccc(O)cc1)C(N)=O)[C@@H](C)O)C(C)C)[C@@H](C)O` [Pramlintide], the “selectivity to hAMYR as compared to hCTR” value was “at least 10 fold”.
